The list shows a part of the results, in another mix than the full data. Inconclusive results are not listed. A call without a number means that no potency is given here. Active and inactive are the calls of the source. Calls come from the whole dose curve; as a rule, active = well fitted inhibition curve with a large enough effect; inconclusive = small, poorly fitted or top-dose-only effect; inactive = no such curve, though single readings can be large or run the other way.
target: Thioredoxin reductase 1, cytoplasmic (Rattus norvegicus) (UniProt O89049); assay: qHTS Assay for Inhibitors of Mammalian Selenoprotein Thioredoxin Reductase 1 (TrxR1): qHTS; conditions: recombinant rTrxR1, NADPH fluorescence consumption, selenite substrate; series mostly up to 114 µM; note: nearly all actives have a fitted effect of over 65% in size
Potency is the fitted concentration of half-maximal effect.

The chains behind the UniProt entries cited, without tags or fusion partners.
UniProt O89049, whole entry: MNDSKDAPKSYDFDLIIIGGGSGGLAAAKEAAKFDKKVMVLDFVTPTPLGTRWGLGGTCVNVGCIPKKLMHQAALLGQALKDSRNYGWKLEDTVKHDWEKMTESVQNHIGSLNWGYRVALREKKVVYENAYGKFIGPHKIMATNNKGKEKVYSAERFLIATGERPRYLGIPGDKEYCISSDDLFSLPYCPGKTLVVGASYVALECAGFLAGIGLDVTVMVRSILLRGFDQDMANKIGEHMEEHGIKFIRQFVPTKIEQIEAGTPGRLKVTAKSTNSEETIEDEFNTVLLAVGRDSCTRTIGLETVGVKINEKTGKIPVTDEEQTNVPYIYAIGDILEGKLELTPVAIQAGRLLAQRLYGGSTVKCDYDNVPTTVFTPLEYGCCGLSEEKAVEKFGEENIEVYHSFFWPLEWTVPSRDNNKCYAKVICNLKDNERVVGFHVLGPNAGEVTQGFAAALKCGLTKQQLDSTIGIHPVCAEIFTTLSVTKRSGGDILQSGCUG

SMILES | Potency | activity change, negative = inhibition
Cc1c(C(c2ccc3c(c2)OCO3)c2c(C)n(C)n(-c3ccccc3)c2=O)c(=O)n(-c2ccccc2)n1C.O=[N+]([O-])c1cc([N+](=O)[O-])c(O)c([N+](=O)[O-])c1 | inactive | 
O=[N+]([O-])c1ccc(OP2(=O)COCCO2)cc1 (configuration not stated) | inactive | 
Cc1cc(-c2cccc3ccccc23)c(C)cn1.O=[N+]([O-])c1cc([N+](=O)[O-])c(O)c([N+](=O)[O-])c1 | inactive | 
CN(C)CCOC(=O)C(O)(c1ccccc1)C1CCCCC1 (configuration not stated) | inactive | 
COc1ccc(NP(C)(=O)Oc2ccccc2OC)cc1 (configuration not stated) | inactive | 
COc1ccc(OP(C)(=O)Nc2cccc(Br)c2)cc1 (configuration not stated) | inactive | 
Cc1ccccc1NP(C)(=O)Nc1ccccc1C | inactive | 
CP(=O)(Nc1ccc2c(c1)OCCO2)Oc1ccccc1 (configuration not stated) | inactive | 
CCOP(C)(=S)SCC(=O)NC(C)(CC)C(=O)O (configuration not stated) | inactive | 
O=C(OCCN1CCN(CCOCc2ccccc2)CC1)C(O)(c1ccccc1)c1ccccc1 | inactive | 
CP(=O)(Nc1ccccc1F)Oc1ccccc1 (configuration not stated) | inactive | 
CC(C)c1ccc(OP(C)(=O)Nc2ccc(SC(F)(F)F)cc2)cc1 (configuration not stated) | inactive | 
CCCCCOc1ccc(NP(C)(=O)Oc2ccc(Cl)cc2Cl)cc1 (configuration not stated) | inactive | 
CCN(CC)CCCOC(=O)C(O)(c1ccccc1)C1CCCCC1 (configuration not stated) | inactive | 
CCOC(=O)c1ccc(NP(C)(=O)Oc2ccc(F)cc2)cc1 (configuration not stated) | inactive | 
COc1ccc(OP(C)(=O)Nc2ccc(SC(F)(F)F)cc2)cc1 (configuration not stated) | inactive | 
CCCCCCCCCCCCCCCC1C[N+](C)(C)CCOP(C)(=O)O1 (configuration not stated) |  | inactive: 18.7% [at 11.4 µM]
CP(=O)(Nc1ccc(Cl)cc1Cl)Oc1ccccc1 (configuration not stated) | inactive | 
CP(=O)(OCCOc1ccccc1)OCCOc1ccccc1 | inactive | 
COc1ccccc1OP(C)(=O)Nc1ccc(C)c(C)c1 (configuration not stated) | inactive | 
COc1ccc(OP(C)(=O)Nc2ccccc2Br)cc1 (configuration not stated) | inactive | 

SMILES | Potency | activity change, negative = inhibition
Cc1cc(C)cc(OP(C)(=O)Nc2cccc(C(F)(F)F)c2)c1 (configuration not stated) | inactive | 
CP(=O)(Nc1ccccn1)Oc1ccccc1 (configuration not stated) | inactive | 
COc1ccccc1OP(C)(=O)Nc1ccc(C)cc1C (configuration not stated) | inactive | 
CCc1ccc(OP(C)(=O)O)cc1 | inactive | 
Cc1c(NP(C)(=O)Oc2ccc(C(C)C)cc2)c(=O)n(-c2ccccc2)n1C (configuration not stated) | inactive | 
O=[N+]([O-])c1cc([N+](=O)[O-])c(Nc2ccccn2)c([N+](=O)[O-])c1 | inactive | 
COc1ccc(OP(C)(=O)Nc2ccccn2)cc1 (configuration not stated) | inactive | 
CN(C)CCOC(=O)C(O)(c1ccccc1)C1CCCC1 (configuration not stated) | inactive | 
COc1ccccc1OP(C)(=O)Nc1ccc(Br)cc1 (configuration not stated) | inactive | 
CN(C)C(=O)c1c([N+](=O)[O-])cc([N+](=O)[O-])cc1[N+](=O)[O-] | inactive | 
COc1ccccc1OP(C)(=O)Nc1ccccc1Br (configuration not stated) | inactive | 
CC(C)(C)c1ccc(OP(C)(=O)O)cc1 | inactive | 
CP(=O)(Nc1ccc(Cl)cc1)Oc1ccc(F)cc1 (configuration not stated) | inactive | 
COc1ccccc1OP(C)(=O)Nc1c(C)n(C)n(-c2ccccc2)c1=O (configuration not stated) | inactive | 
O=C(OCCCN1CCCC1)C(O)(c1ccccc1)C1CCCCC1 (configuration not stated) | inactive | 
CP(=O)(Oc1ccccc1)N1CCOC1=O (configuration not stated) | inactive | 
CCc1ccc(OP(C)(=O)Nc2cccnc2)cc1 (configuration not stated) | inactive | 
CCN(CC)CC(O)COC(=O)C(O)(c1ccccc1)C1CCCCC1 (configuration not stated) | inactive | 
COc1ccc(OP(C)(=O)Nc2ccc(Br)cc2)cc1 (configuration not stated) | inactive | 
CCOC(=O)c1ccc(NP(C)(=O)Oc2ccc(Cl)cc2)cc1 (configuration not stated) | inactive | 
CP(=O)(OC12CC3CC(CC(C3)C1)C2)OC12CC3CC(CC(C3)C1)C2 | inactive | 

SMILES | Potency | activity change, negative = inhibition
Nc1ccc2c(ccc3cccnc32)n1.O=[N+]([O-])c1cc([N+](=O)[O-])c(O)c([N+](=O)[O-])c1 | inactive | 
CP(=O)(Nc1ccccc1Br)Oc1ccccc1 (configuration not stated) | inactive | 
COc1ccccc1OP(C)(=O)Nc1ccccc1 (configuration not stated) | inactive | 
CP(=S)(Nn1cnnc1)Oc1ccccc1 (configuration not stated) | inactive | 
CP(=O)(Nc1ccccn1)Oc1ccc(Cl)cc1 (configuration not stated) | inactive | 
CCOC(=O)c1ccc(NP(C)(=O)Oc2ccc(OC)cc2)cc1 (configuration not stated) | inactive | 
O=[N+]([O-])c1cc([N+](=O)[O-])c(O)c([N+](=O)[O-])c1.c1ccc(Oc2ccncc2)cc1 | inactive | 
CCOP(C)(=S)SCC(=O)NC(C)C(=O)O (configuration not stated) | inactive | 
CP(=O)(NC(=O)Nc1ccccc1)Oc1ccccc1 (configuration not stated) | inactive | 
CCc1ccc(OP(C)(=O)N2CCN(c3ccc([N+](=O)[O-])cc3)CC2)cc1 (configuration not stated) | inactive | 
Cc1cc(C)cc(OP(C)(=O)Nc2ccc(SC(F)(F)F)cc2)c1 (configuration not stated) | inactive | 
Cc1cccc(C)c1OP(C)(=O)Nc1ccc(SC(F)(F)F)cc1 (configuration not stated) | inactive | 
CP(=O)(Nc1ccc(SC(F)(F)F)cc1)Oc1ccc(Cl)cc1 (configuration not stated) | inactive | 
CP(=O)(Oc1ccccc1)OC(c1ccccc1)C(F)(F)F (configuration not stated) | inactive | 
CCN(CC)CCCOC(=O)C(O)(c1ccccc1)c1ccccc1 | inactive | 
Cc1cc(C)cc(OP(C)(N)=O)c1 (configuration not stated) | inactive | 
COc1ccccc1OP(C)(=O)Nc1cc(Cl)ccc1C (configuration not stated) | inactive | 
COc1ccc(OP(C)(=O)Nc2cccc(F)c2)cc1 (configuration not stated) | inactive | 
COc1ccccc1OP(C)(=O)Nc1ccc(C)cc1 (configuration not stated) | inactive | 
Cc1ccc(NP(C)(=O)Oc2ccccc2)c(C)c1 (configuration not stated) | inactive | 
CCOC(=O)c1ccc(NP(C)(=O)Oc2ccccc2)cc1 (configuration not stated) | inactive | 

SMILES | Potency | activity change, negative = inhibition
O=[N+]([O-])c1ccc2c(c1)C=Nc1ccccc1O2 | inactive | 
CC(C)(C)c1ccc(OP(C)(=O)Nc2ccc(SC(F)(F)F)cc2)cc1 (configuration not stated) | inactive | 
Cc1cccc(C)c1OP(C)(N)=O (configuration not stated) | inactive | 
O=[N+]([O-])c1cc([N+](=O)[O-])c(Nc2cccnc2)c([N+](=O)[O-])c1 | active: 10 µM | 
CC1=NCCc2c1[nH]c1ccccc21.O=[N+]([O-])c1cc([N+](=O)[O-])c(O)c([N+](=O)[O-])c1 | inactive | 
Cc1ccc(C)c(NP(C)(=O)Oc2ccccc2)c1 (configuration not stated) | inactive | 
Cc1cc(C)cc(OP(C)(=O)Nc2ccccn2)c1 (configuration not stated) | inactive | 
CP(=O)(Nc1cccc(Br)c1)Oc1ccccc1 (configuration not stated) | inactive | 
CCOC(=O)c1ccc(NP(C)(=O)Oc2cc(C)cc(C)c2)cc1 (configuration not stated) | inactive | 
Cc1cc(C)cc(OP(C)(=O)Nc2ccc(C)cc2C)c1 (configuration not stated) | inactive | 
COc1ccccc1OP(C)(=O)Nc1cccc(Br)c1 (configuration not stated) | inactive | 
Cc1nc2ccc3ccccc3c2s1.O=[N+]([O-])c1cc([N+](=O)[O-])c(O)c([N+](=O)[O-])c1 | inactive | 
O=[N+]([O-])c1cc([N+](=O)[O-])c(-c2cnn(-c3ccccc3)c2)c([N+](=O)[O-])c1 | inactive | 
CCCOc1ccc(NP(C)(=O)Oc2ccc(Cl)cc2)cc1 (configuration not stated) | inactive | 
CP(=O)(Nc1ccc(SC(F)(F)F)cc1)Oc1ccccc1 (configuration not stated) | inactive | 
COc1ccccc1OP(C)(=O)Nc1c(C)cccc1C (configuration not stated) | inactive | 
CN1CCCCC1COC(=O)C1(O)c2ccccc2CCc2ccccc21 (configuration not stated) | inactive | 
CC1=C2N=C(C=C3N=C(C(C)=C4[N-][C@@](C)([C@@H]5N=C1[C@](C)(CCC(=O)NC[C@@H](C)OP(=O)([O-])O[C@H]1[C@@H](O)[C@@H](n6cnc7cc(C)c(C)cc76)O[C@@H]1CO)[C@H]5CC(N)=O)[C@@](C)(CC(N)=O)[C@@H]4CCC(N)=O)[C@@](C)(CC(N)=O)[C@@H]3CCC(N)=O)C(C)(C)[C@@H]2CCC(N)=O.[C-]#N.[Co+3] | inactive | 
O=[N+]([O-])c1cc([N+](=O)[O-])c(Nc2nnnn2CCO)c([N+](=O)[O-])c1 | active: 20 µM | 
